## Binding of CDR-mutated scFvs to a peptide of the spike HR2 region

The target is the same throughout: PDVDLGDISGINAS, from the HR2 region of SARS-CoV-2 spike.

The variants keep the light chain, the linker and the frameworks of Ab-14 (scFv order VH, the linker GGGGSGGGGSGGGGS, VL).
VH: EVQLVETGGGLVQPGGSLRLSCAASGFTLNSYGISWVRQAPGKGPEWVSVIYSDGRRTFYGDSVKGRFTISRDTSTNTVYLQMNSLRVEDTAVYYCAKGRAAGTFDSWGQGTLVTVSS
VL: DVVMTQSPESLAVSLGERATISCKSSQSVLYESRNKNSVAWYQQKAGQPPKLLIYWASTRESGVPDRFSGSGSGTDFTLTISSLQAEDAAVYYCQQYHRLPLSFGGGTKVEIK

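Phage display of a naive human antibody library on the peptide gave the parent. Designed CDR sequences, proposed from the first random library and measured here. Their group label is 14H_En_HC (En: ensemble of fine-tuned language models; HC: hill climbing; a sequence that several methods proposed may carry one label only). AlphaSeq pools MATa yeast showing the antibodies with MATalpha yeast showing the peptide. After mating in shaken culture at 30 °C for 16 h, diploids were selected and their barcode pairs sequenced. Read counts were normalised to the haploid input and turned into Kd by a linear fit to BCL2-family pairs of known affinity, for each replicate. Each pool was mated in six replicate cultures.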

Each variant is given by its three heavy chain CDRs, as the data file delimits them; those of the parent are GFTLNSYGIS, VIYSDGRRTFYGDSVK, GRAAGTFDS. Affinities are written as log10 Kd with Kd in nM; a lower number is a better binder. A pair that was not seen in that replicate is written "ND"; this usually means weak binding, but a binder can also be missed. In the paper, a design with two or fewer of six values counts as a poor binder. Values of this round are not directly comparable with the first-round values of the same sequences. Background: pairings of all heavy chain designs with three empty control strains gave a value in 1% of cases (median 2.08, 5th percentile 0.84). Values in that range, when seen in few replicates, are hard to tell from nonspecific mating. The control count says in how many pairings with the empty strains this scFv gave a signal, with their mean in brackets.

| # | CDR-H1 | CDR-H2 | CDR-H3 | log10 Kd, replicates | empty controls |
|---|---|---|---|---|---|
| 1 | GFDINEYGIS | VIYADGMRTFYADSVK | GQTAGTFDV | -0.19 / -0.24 / -0.71 / -0.85 / -0.63 / -0.74 | 0/18 |
| 2 | GFDLNEYGIS | VIYADGRRTFYADSVK | GEVAGTFVM | -0.11 / -0.28 / -0.34 / -0.38 / -0.41 / -0.20 | 0/18 |
| 3 | GFDLNEYGIS | VIYADGRRTAYIDSVK | GEAAGTFDA | -0.36 / -0.63 / -0.33 / -0.73 / -0.67 / -0.17 | 0/18 |
| 4 | GFNLNEYGIS | VIYADGRRTFYADSVK | GEAAGTFDT | 0.36 / 0.14 / 0.23 / 0.11 / 0.52 / 0.43 | 0/18 |
| 5 | GFDLNEYGIS | VIYADGRRTAYVDSVK | GEIAGTFDV | 0.15 / -0.20 / -0.32 / -0.55 / -0.19 / -0.04 | 1/18 (1.57) |
| 6 | GFDLNEYGIS | VIYADGRRTSYIDSVK | GEQAGTFDV | -0.61 / -0.53 / -0.62 / -0.66 / -0.25 / -0.32 | 0/18 |
| 7 | GFSLDEYGIS | VIYADGRRTFYADSVK | GNVAGTFDM | -0.43 / -0.13 / -0.70 / -0.13 / -0.35 / -0.35 | 1/18 (2.07) |
| 8 | GFDINEYGIS | VIYADGRRTFYADSVK | GQNAGTFDS | -0.86 / -0.21 / -0.82 / -0.89 / -0.91 / -1.22 | 0/18 |
| 9 | GFNLNEYGIS | VIYADGMRTFYADSVK | GETAGTFDN | 0.11 / -0.24 / 0.04 / -0.04 / -0.27 / 0.17 | 2/18 (1.21) |
| 10 | GFDLNEYGIS | VIYADGQRTAYADSVK | GQVAGTFDS | -0.14 / -0.22 / 0.28 / -0.82 / -1.06 / 0.07 | 0/18 |
| 11 | GFDLNEYGIS | VIYADGRRTAYGDSVK | GTNAGTFDV | -0.33 / -0.19 / -0.25 / -0.44 / -0.30 / -0.28 | 0/18 |
| 12 | GFDLNEYGIS | VIYADGRRTAYIDSVK | GHQAGTFDS | 0.32 / 0.12 / 0.32 / 0.07 / 0.16 / 0.20 | 0/18 |
| 13 | GFTLDEYGIS | VIYADGRRTFYADSVK | GEAAGTFDV | 0.26 / 0.02 / -0.37 / 0.03 / -0.08 / -0.15 | 0/18 |
| 14 | GFDLNEYGIS | VIYADGMRTAYADSVK | GKVAGTFNV | -0.49 / -0.79 / -0.81 / -0.73 / -0.90 / -0.63 | 0/18 |
| 15 | GFDLNEYGIS | VIYADGRRTFYTDSVK | GNHAGTFDV | -0.07 / 0.19 / -0.51 / -0.25 / 0.58 / 0.45 | 0/18 |
| 16 | GFNLNEYGIS | VIYADGRRTFYADSVK | GQIAGTFIQ | -0.25 / 0.18 / -0.28 / 0.67 / -0.40 / -0.22 | 0/18 |
| 17 | GFDLNEYGIS | VIYADGRRTAYIDSVK | GEIAGTFDI | 1.00 / -0.36 / -1.33 / -0.94 / 0.50 / 0.52 | 0/18 |
| 18 | GFDLNEYGIS | VIYADGRRTSYADSVK | GQNAGTFDQ | -0.01 / -0.04 / -0.18 / -0.63 / -0.16 / -0.26 | 1/18 (3.53) |
| 19 | GFDLNEYGIS | VIYADGRRTFYTDSVK | GTLAGTFDV | -0.29 / -0.52 / -0.63 / -0.76 / -0.84 / -0.44 | 0/18 |
| 20 | GFDLNEYGIS | VIYADGRRTFYTDSVK | GQFAGTFDV | -0.41 / 0.07 / -0.30 / -0.68 / -0.58 / -0.28 | 0/18 |
| 21 | GFDLNEYGIS | VIYADGIRTFYADSVK | GNVAGTFDS | -0.74 / -0.66 / -0.66 / -0.69 / -0.85 / -0.76 | 0/18 |
| 22 | GFDLNEYGIS | VIYADGRRTFYSDSVK | GTVAGTFDV | -0.43 / -0.36 / -0.62 / -0.59 / -0.56 / -0.45 | 2/18 (2.50) |
| 23 | GFNLNEYGIS | VIYADGVRTFYADSVK | GQQAGTFDM | -0.26 / -0.44 / -0.51 / -0.42 / -0.43 / -0.30 | 1/18 (4.75) |
| 24 | GFDLNEYGIS | VIYADGRRTFYSDSVK | GETGGTFDV | 1.31 / 1.84 / 1.60 / 2.15 / ND / 1.50 | 0/18 |
| 25 | GFNLNEYGIS | VIYADGRRTFYADSVK | GEAAGTFDI | -0.41 / -0.50 / -0.61 / -0.46 / -0.38 / -0.13 | 1/18 (2.01) |
| 26 | GFELDEYGIS | VIYADGRRTFYSDSVK | GSTAGTFDV | -0.57 / -0.66 / -0.32 / -0.68 / -0.38 / -0.33 | 0/18 |
| 27 | GFNLNEYGIS | VIYADGRRTFYADSVK | GNVAGTFDM | -0.46 / -0.18 / -0.71 / 0.58 / -0.64 / -0.54 | 0/18 |
| 28 | GFDINEYGIS | VIYADGRRTFYTDSVK | GQNAGTFDS | -0.09 / 0.01 / 0.08 / -0.01 / 0.26 / 0.37 | 1/18 (1.77) |
| 29 | GFDLNEYGIS | VIYADGQRTFYADSVK | GNVAGTFDS | -0.09 / -0.40 / -0.34 / -0.50 / -0.23 / -0.48 | 0/18 |
| 30 | GFDLNEYGIS | VIYADGRRTFYADSVK | GEVAGTFIV | 0.26 / -0.09 / -0.36 / 0.37 / 0.15 / 0.47 | 1/18 (2.88) |
| 31 | GFDLNEYGIS | VIYADGKRTFYADSVK | GQLAGTFSV | -0.60 / -1.08 / -0.84 / -0.93 / -0.94 / -0.65 | 0/18 |
| 32 | GFDLNEYGIS | VIYADGRRTFYADSVK | GQIAGTFNV | -0.42 / -0.30 / -0.40 / -0.59 / -0.58 / -0.34 | 0/18 |
| 33 | GFDLNEYGIS | VIYADGRRTFYTDSVK | GGNAGTFDF | -0.54 / -0.75 / -0.54 / -0.81 / -0.64 / -0.47 | 0/18 |
| 34 | GFDLNEYGIS | VIYADGRRTAYIDSVK | GHAAGTFDK | -0.22 / -0.61 / 0.19 / -0.84 / -0.63 / -0.01 | 0/18 |
| 35 | GFDLDEYGIS | VIYADGRRTFYADSVK | GGLAGTFDV | 0.17 / 0.09 / -0.08 / -0.03 / -0.22 / 0.10 | 1/18 (2.38) |
| 36 | GFDLNEYGIS | VIYADGRRTFYADNVK | GQNAGTFDV | -0.28 / -0.75 / -0.54 / -0.71 / -0.22 / -0.46 | 1/18 (1.90) |
| 37 | GFDLNEYGIS | VIYADGMRTFYTDSVK | GEVAGTFDI | -0.61 / -0.72 / -0.64 / -0.82 / -0.79 / -0.46 | 1/18 (1.21) |
| 38 | GFDLNEYGIS | VIYADGKRTFYTDSVK | GQLAGTFDV | -0.29 / -0.61 / -0.83 / -0.67 / -0.45 / -0.57 | 1/18 (2.35) |
| 39 | GFDLNEYGIS | VIYADGVRTFYVDSVK | GETAGTFEI | 0.13 / -0.21 / -0.33 / -0.26 / -0.45 / -0.31 | 1/18 (1.31) |
| 40 | GFNLNEYGIS | VIYADGKRTFYSDSVK | GEAGGTFDV | 1.12 / -0.27 / 0.34 / -0.42 / 0.64 / -0.45 | 0/18 |
| 41 | GFDLNEYGIS | VIYADGRRTFYADSVK | GNVAGTFNQ | 0.52 / -0.70 / -0.41 / -0.57 / 0.12 / -0.18 | 0/18 |

A selection of 3 entries from above:

{"CDR-H1": "GFDLNEYGIS", "CDR-H2": "VIYADGRRTFYTDSVK", "CDR-H3": "GQFAGTFDV", "log10 Kd, replicates": "-0.41 / 0.07 / -0.30 / -0.68 / -0.58 / -0.28", "empty controls": "0/18"}
{"CDR-H1": "GFDLNEYGIS", "CDR-H2": "VIYADGRRTFYADSVK", "CDR-H3": "GEVAGTFVM", "log10 Kd, replicates": "-0.11 / -0.28 / -0.34 / -0.38 / -0.41 / -0.20", "empty controls": "0/18"}
{"CDR-H1": "GFNLNEYGIS", "CDR-H2": "VIYADGRRTFYADSVK", "CDR-H3": "GQIAGTFIQ", "log10 Kd, replicates": "-0.25 / 0.18 / -0.28 / 0.67 / -0.40 / -0.22", "empty controls": "0/18"}

From the AlphaSeq antibody data of Li et al. 2023 (doi:10.1038/s41467-023-39022-2), copy in the FLAb collection.